Molecular target: IGFR kinase (Homo sapiens, UniProt P08069)
Test: Enzyme assay (c), IGFR kinase, Caliper LabChip
Format: biochemical
Settings: read-out: IGFR IC50; 30 nM IGFR kinase, 6 uM ATP, 3 uM peptide mix

Protein sequences, listed by entry. Tags and fused reporters are not part of them. Residues count along the entry.
UniProt P08069, 31-1367 limits assumed: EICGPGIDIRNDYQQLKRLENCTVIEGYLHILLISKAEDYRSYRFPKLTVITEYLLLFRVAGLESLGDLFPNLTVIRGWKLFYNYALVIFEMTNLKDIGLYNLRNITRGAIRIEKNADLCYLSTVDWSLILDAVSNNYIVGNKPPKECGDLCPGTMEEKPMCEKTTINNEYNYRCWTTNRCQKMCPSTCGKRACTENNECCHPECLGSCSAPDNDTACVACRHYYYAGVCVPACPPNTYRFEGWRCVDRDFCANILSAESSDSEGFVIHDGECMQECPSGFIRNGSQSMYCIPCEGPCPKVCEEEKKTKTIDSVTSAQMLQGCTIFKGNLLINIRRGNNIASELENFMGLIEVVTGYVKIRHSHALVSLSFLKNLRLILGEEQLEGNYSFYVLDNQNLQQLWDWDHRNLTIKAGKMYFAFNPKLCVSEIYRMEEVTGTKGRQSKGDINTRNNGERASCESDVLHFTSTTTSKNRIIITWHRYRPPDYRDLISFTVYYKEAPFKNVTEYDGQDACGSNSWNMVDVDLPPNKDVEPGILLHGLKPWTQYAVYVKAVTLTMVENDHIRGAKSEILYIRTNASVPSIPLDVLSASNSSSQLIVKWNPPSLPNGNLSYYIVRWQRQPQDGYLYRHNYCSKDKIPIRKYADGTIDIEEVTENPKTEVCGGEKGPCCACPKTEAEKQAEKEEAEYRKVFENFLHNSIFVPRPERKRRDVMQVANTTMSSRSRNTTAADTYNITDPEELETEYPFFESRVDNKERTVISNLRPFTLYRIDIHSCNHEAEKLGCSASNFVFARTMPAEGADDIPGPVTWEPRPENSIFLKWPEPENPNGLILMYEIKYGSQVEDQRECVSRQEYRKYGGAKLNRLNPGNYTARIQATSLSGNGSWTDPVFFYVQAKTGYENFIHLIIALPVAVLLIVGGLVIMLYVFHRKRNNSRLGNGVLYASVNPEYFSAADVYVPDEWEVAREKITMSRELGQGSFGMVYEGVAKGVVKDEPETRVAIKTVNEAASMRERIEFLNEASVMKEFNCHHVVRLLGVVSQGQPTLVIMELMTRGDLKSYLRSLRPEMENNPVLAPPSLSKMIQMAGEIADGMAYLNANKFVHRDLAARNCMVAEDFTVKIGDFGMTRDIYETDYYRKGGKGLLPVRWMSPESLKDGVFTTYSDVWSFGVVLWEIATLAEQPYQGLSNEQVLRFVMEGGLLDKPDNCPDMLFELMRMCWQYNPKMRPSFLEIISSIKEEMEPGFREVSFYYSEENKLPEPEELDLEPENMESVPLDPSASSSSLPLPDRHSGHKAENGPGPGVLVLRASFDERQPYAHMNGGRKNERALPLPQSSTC

## CNC(=O)[C@@H](C)Oc1ccc(Nc2ncc(Cl)c(-c3cnc4c(F)cccn34)n2)c(OC)c1
  IC50: 9 nM
